{"source": "patent US11712461B2", "about": "“Long-acting polypeptide composition for treating atrial fibrillation and its application” (THE FIRST AFFILIATED HOSPITAL OF XI'AN JIAOTONG UNIVERSITY, priority 2021, dated 2023)", "system": "Beagle dogs with atrial fibrillation", "assay": "Holter electrocardiogram analysis of beagle dogs with atrial fibrillation treated with the polypeptide", "type": "in vivo, beagle dog", "conditions": "inferred from good therapeutic effect with subcutaneous injection once a day in dogs", "excerpt": "(1) Establishing a large animal model: male beagle dogs from 12 to 18 months old, provided by the Animal Experimental Center of Xi'an Jiaotong University School of Medicine, using self-control method, real-time monitoring of beagle dog electrocardiogram through holter to determine whether atrial fibrillation occurred. And recording the baseline, the ECG when the atrial fibrillation occurred and after the polypeptide intervention.\n(3) Polypeptide treatment method: dissolving the polypeptide in physiological saline, and injecting 5*10^−9 mol/kg into the loose subcutaneous tissue at the back of the beagle' neck every day, once a day, record the injection time, and record the injection continuously for 5 days.\n(4) Electrocardiogram detection method: the large-scale detection indicators in this experiment were all carried out by holter (FIG. 2). Beagle dogs were anesthetized, their hair was shaved, and electrodes were attached. After the connection was established, the ECG monitoring was started. […]\n2) The electrocardiogram and atrial fibrillation events of dogs with atrial fibrillation were analyzed by Holter, and the electrocardiograms and atrial fibrillation events of normal dogs, atrial fibrillation dogs and beagle dogs treated with peptides were compared. […]", "data": [{"smiles": "CC[C@H](C)[C@H](NC(=O)[C@H](CO)NC(=O)C(CC(N)=O)NC(=O)[C@H](CC(C)C)NC(=O)[C@H](Cc1ccc(O)cc1)NC(=O)[C@H](CCCCN)NC(=O)[C@H](CCCCN)NC(=O)[C@@H](NC(=O)[C@H](C)NC(=O)[C@H](CCSC)NC(=O)[C@H](CCC(N)=O)NC(=O)[C@H](CCCCN)NC(=O)[C@H](CCCNC(=N)N)NC(=O)[C@H](CC(C)C)NC(=O)[C@H](CCCNC(=N)N)NC(=O)[C@@H](NC(=O)[C@H](Cc1ccc(O)cc1)NC(=O)[C@H](CC(N)=O)NC(=O)[C@H](CC(=O)O)NC(=O)[C@H](C)NC(=O)[C@H](N)Cc1ccccc1)[C@@H](C)O)C(C)C)C(=O)N[C@@H](CC(C)C)C(=O)N[C@@H](CC(N)=O)C(N)=O", "note": "(stereo partly shown) [Polypeptide VA]", "values": [{"measurement": "half-life", "value": "long half-life"}]}]}
